In the assay the target is F508delCFTR (Homo sapiens, UniProt P13569, DEL508-508). The assay can be described thus: Cell Surface Expression-Horse Radish Peroxidase (CSE-HRP) Assay. In kind it is cell-based. As to the method:
A cellular assay for measuring the F508delCFTR cell surface expression after correction with test compounds either without or with a co-corrector (2 μM of 3-[(2R,4R)-4-({[1-(2,2-difluoro-1,3-benzodioxol-5-yl)cyclopropyl]carbonyl}amino)-7-methoxy-3,4-dihydro-2H-chromen-2-yl]benzoic acid), was developed in human lung derived epithelial cell line (CFBE4lo−) (Veit G et al, (2012) Mol Biol Cell. 23(21): 4188-4202). The development was achieved by expressing the F508delCFTR mutation along with a horseradish peroxidase (HRP) in the fourth exofacial loop, and then measuring the HRP activity using luminescence readout from these cells, CFBE410-F508delCFTR-HRP, that were incubated overnight with the test corrector compounds, either without or with the co-corrector. […] Post incubation, the plates were washed 5× times with Dulbecco's phosphate buffered saline (DPBS), followed by the addition of the HRP substrate, luminol (50 4), and measuring the HRP activity using luminescence readout on EnVision® Multilabel Plate Reader (Perkin Elmer; product number 2104-0010). The raw counts from the experiment were analyzed using Accelrys® Assay Explorer v3.3. […]

Chains of the proteins cited; added tags and fusions are not shown. A line that says so, or that is headed by a name, gives the form on record, which may keep a tag or linker.
UniProt P13569, with tags, fused parts or gaps DEL508-508: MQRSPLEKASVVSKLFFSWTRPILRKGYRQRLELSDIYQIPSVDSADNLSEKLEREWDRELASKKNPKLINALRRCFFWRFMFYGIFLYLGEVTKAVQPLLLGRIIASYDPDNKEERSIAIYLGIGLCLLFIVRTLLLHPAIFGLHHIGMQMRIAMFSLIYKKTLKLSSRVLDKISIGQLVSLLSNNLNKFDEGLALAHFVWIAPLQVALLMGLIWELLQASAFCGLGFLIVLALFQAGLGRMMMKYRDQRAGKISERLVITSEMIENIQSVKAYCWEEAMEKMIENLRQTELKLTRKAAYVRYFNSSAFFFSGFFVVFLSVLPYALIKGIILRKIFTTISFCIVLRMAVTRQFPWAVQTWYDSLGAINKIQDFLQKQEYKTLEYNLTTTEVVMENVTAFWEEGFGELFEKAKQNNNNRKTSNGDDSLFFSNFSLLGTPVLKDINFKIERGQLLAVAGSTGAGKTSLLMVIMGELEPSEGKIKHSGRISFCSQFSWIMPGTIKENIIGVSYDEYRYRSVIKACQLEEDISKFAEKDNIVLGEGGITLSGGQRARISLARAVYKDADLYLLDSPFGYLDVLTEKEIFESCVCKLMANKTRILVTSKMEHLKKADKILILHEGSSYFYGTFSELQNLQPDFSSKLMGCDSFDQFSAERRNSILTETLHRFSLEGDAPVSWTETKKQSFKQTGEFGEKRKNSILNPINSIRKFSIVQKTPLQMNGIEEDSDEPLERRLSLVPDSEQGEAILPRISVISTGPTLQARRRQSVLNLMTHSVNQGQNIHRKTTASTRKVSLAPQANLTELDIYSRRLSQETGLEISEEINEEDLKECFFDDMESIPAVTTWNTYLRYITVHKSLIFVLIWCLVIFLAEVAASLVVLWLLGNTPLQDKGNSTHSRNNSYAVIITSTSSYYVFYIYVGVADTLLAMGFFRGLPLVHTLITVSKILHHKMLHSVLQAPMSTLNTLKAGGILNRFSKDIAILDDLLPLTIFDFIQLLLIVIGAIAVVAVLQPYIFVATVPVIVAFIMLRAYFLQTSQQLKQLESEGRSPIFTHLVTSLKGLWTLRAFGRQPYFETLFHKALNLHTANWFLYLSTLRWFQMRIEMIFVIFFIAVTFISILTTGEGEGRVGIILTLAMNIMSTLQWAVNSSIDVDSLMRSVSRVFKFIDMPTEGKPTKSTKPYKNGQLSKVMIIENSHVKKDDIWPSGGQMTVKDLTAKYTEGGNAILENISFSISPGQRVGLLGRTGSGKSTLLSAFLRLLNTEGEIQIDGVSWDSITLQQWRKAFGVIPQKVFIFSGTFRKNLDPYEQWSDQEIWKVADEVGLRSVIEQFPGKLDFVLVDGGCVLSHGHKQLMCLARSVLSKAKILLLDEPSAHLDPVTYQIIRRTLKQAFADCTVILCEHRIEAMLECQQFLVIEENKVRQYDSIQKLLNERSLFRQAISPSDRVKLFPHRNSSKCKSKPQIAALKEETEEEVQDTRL

For orientation: EC50 means the concentration at which the effect is half-maximal.

Like-named read-outs stand apart in the source and are kept apart here.

For `COc1ccc(C2CCC2)cc1C1(C(=O)NS(=O)(=O)c2cccc3nc(C)ccc23)CCC1` [Example I-33, 1-(5-cyclobutyl-2-methoxyphenyl)-N-(2-methylquinoline-5-sulfonyl)cyclobutane-1-carboxamide], the EC50 is less than 3 µM (read-out: EC50 (with co-corrector), with co-corrector) and less than 3 µM (read-out: EC50 (without co-corrector), test compound alone, without co-corrector).

For the origin of these results see patent publication US10829473B2, “Modulators of the cystic fibrosis transmembrane conductance regulator protein and methods of use” (AbbVie Overseas S.Á.R.L., priority 2017, dated 2020).
